# Patent publication US20070281910A1, “Salicyl alcohol creatine phosphate prodrugs, compositions and uses thereof” (XenoPort, Inc., priority 2006, published 2007)
# Sequences of proteins named here, by UniProt entry; tags and fusion partners are left off. A change or cut given only in a name is not applied to a line headed by its entry.
# UniProt Q9Y289: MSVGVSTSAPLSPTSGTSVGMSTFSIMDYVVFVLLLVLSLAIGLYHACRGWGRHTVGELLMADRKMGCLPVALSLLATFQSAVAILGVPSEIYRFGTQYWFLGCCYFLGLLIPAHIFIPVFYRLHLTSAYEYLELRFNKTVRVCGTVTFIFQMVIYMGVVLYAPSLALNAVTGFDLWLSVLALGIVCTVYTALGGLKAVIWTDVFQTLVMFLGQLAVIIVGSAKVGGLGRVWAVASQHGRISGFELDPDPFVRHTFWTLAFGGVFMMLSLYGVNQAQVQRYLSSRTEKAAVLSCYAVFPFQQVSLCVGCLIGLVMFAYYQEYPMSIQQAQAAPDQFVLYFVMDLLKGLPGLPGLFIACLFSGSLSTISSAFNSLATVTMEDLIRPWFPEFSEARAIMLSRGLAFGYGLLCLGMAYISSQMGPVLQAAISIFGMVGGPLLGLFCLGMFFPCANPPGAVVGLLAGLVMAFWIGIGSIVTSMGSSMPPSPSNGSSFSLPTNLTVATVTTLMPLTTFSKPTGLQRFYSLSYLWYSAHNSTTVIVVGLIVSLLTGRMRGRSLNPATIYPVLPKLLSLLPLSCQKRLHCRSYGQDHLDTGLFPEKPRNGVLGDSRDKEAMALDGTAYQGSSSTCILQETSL
# Key:
# [1] = biological target: SMVT transporter (Homo sapiens, UniProt Q9Y289); assay: Uptake in HEK cells induced / not induced to express SMVT; conditions: 0.1 mM, SMVT induced vs not induced, FIG. 5
# [2] = Enzymatic stability in rat liver S9; conditions: 37° C.
# [3] = Enzymatic stability in Caco-2 homogenate S9; conditions: 37° C.
# [4] = Enzymatic stability in rat plasma
# [5] = Chemical stability in pH buffers; conditions: for Chemical Stability, pH 2.0: pH 2.0 buffer; for Chemical Stability, pH 7.4: pH 7.4 buffer; for Chemical Stability, pH 8.0: pH 8.0 buffer
smiles,measurement,setting,value
CN(CC(=O)O)C(=N)NP1(=O)OCc2ccccc2O1 (stereo not shown),transporter specific uptake into HEK cells,[1],transported across the plasma membrane of HEK cells via the SMVT transporter
same,"Enzymatic Stability, Rat Liver S9",[2]; Time 0 h,100.0
same,"Enzymatic Stability, Rat Liver S9",[2]; Time 0.5 h,78.4
same,"Enzymatic Stability, Rat Liver S9",[2]; Time 1 h,105.6
same,"Enzymatic Stability, Rat Liver S9",[2]; Time 3 h,83.5
same,"Enzymatic Stability, Rat Liver S9",[2]; Time 6 h,78.1
same,"Enzymatic Stability, Caco-2",[3]; Time 0 h,100.0
same,"Enzymatic Stability, Caco-2",[3]; Time 0.5 h,86.4
same,"Enzymatic Stability, Caco-2",[3]; Time 1 h,105.8
same,"Enzymatic Stability, Caco-2",[3]; Time 3 h,91.8
same,"Enzymatic Stability, Caco-2",[3]; Time 6 h,86.5
same,"Enzymatic Stability, Rat Plasma",[4]; Time 0 h,100.0
same,"Enzymatic Stability, Rat Plasma",[4]; Time 0.5 h,86.3
same,"Enzymatic Stability, Rat Plasma",[4]; Time 1 h,85.2
same,"Enzymatic Stability, Rat Plasma",[4]; Time 3 h,103.0
same,"Enzymatic Stability, Rat Plasma",[4]; Time 6 h,90.9
same,"Chemical Stability, pH 2.0",[5]; Time 0 h,100.0
same,"Chemical Stability, pH 2.0",[5]; Time 0.5 h,74.9
same,"Chemical Stability, pH 2.0",[5]; Time 1 h,60.5
same,"Chemical Stability, pH 2.0",[5]; Time 3 h,33.8
same,"Chemical Stability, pH 7.4",[5]; Time 0 h,100.0
same,"Chemical Stability, pH 7.4",[5]; Time 0.5 h,107.4
same,"Chemical Stability, pH 7.4",[5]; Time 1 h,100.2
same,"Chemical Stability, pH 7.4",[5]; Time 3 h,103.7
same,"Chemical Stability, pH 8.0",[5]; Time 0 h,100.0
same,"Chemical Stability, pH 8.0",[5]; Time 0.5 h,97.7
same,"Chemical Stability, pH 8.0",[5]; Time 1 h,97.6
same,"Chemical Stability, pH 8.0",[5]; Time 3 h,111.7
